Shown is part of a subset that was picked to be rich in hits.
MBNL1-CUG inh: MBNL1-poly(CUG) RNA binding inhibition; actives 0.036% (n = 280,000); AID 2675; TR-FRET MBNL1-His/biotin-(CUG)12 binding, 665/545 ratio; Potency, µM (titrated, usually from 57.5 µM), for inactives: at the top dose activity change, negative = inhibition, hits mostly inhibitors; active means well fitted inhibition curve with a large enough effect in the signal ratio, with a control signal flat, not every such curve was filed as active; inconclusive means small, poorly fitted or top-dose-only effect, or effect the other way, or a change in a side signal; inactive means no such curve, though single readings can be large or run the other way; the % refers to the signal ratio; further: potency means the concentration at half of the fitted maximal effect; on the % scale 0 is the no-effect control and ±100 the full control effect
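Compound titration spanned 92 nM–58 uM against the MBNL1-His/biotin-(CUG)12 complex. After 60 min at room temperature with 5 nM streptavidin-XL665 and 0.055 ng/ul terbium anti-His, ratiometric 665/545 nm emission (Ex 340 nm) normalized to controls.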
ClpP mod: qHTS Assay for Activators of ClpP. purified B. subtilis ClpP, FRET peptide cleavage, 20 min. Potency, µM (doses to about 57.5 µM), without a hit: at the highest dose activity change, negative = active. AID 651965, 2013. ATP-dependent Clp protease proteolytic subunit (Bacillus subtilis (strain 168)), P80244. actives 1.9% (n = 340,000); active means well fitted falling curve with a large enough effect; inconclusive means small, poorly fitted or top-dose-only effect; inactive means no such curve, though single readings can be large or run the other way; further: potency means the concentration at half of the fitted maximal effect; the source files actives as falling curves though it sought activators and does not explain the sign; nearly all actives have a fitted effect of over 65% in size
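Purified B. subtilis ClpP, 10 microg/mL final in Tris/HCl pH8 with KCl, BSA, glycerol and Tween-20, cleaved an Abz/nitrotyrosine-quenched decapeptide. Fluorescence (ex 320, em 430) was read at 0 and 20 min at room temperature. Delta was normalized to 5.8 microM ADEP and DMSO/no-enzyme controls.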
Rango-impB inh: inhibitors of Rango-importin beta complex formation | Q14974 | Rango CFP/YFP FRET sensor + importin beta, 45 min | Potency, µM (top dose mostly 92.2 µM), for inactives: at the highest dose inhibition of complex formation | actives 0.031% (n = 340,000);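 further: potency means the concentration at half of the fitted maximal effect; 0% = DMSO wells and 100% = buffer wells lacking importin beta; nearly all actives have a fitted effect of over 15% in size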
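FRET biosensor (snurportin 1 IBB flanked by EYFP and cerulean), 50 nM, with compound 5 min, then 0.125 microM importin beta in PBS, 1 mM DTT, 0.02% Tween-20, 0.1% BSA. CFP/YFP ratio read after 45 min at room temperature; pre-read flags interference.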
Rango release inh: inhibition of RanGTP-driven Rango-importin beta dissociation | actives 0.071% (n = 340,000) | Potency, µM (series often up to 46.1 µM), for the others: at the top dose activity change, negative = inhibition | Biochemical FRET Rango-importin beta, RanGTP-induced dissociation | O95149+P62826; further: potency means the concentration at half of the fitted maximal effect; % of control where 0% means no effect; nearly all actives have a fitted effect of over 45% in size
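Two FRET readings bracket the reaction: one 5 min after compound meets Rango–importin beta, another 45 min after RanGTP-RCC1 (0.6 uM Ran, 0.2 uM RCC1, 2 mM GTP) is added. Only the second defines inhibition.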
CBFb-RUNX1 inh: blocks binding between human CBF-beta and RUNX1; AlphaScreen CBFb-His/RUNX1-biotin binding, biochemical; Potency, µM (highest dose often 59.8 µM), without a hit: at the top dose activity, negative = inhibition, actives largely listed as inhibitors; 230,000 tested, under 10 active; active means well fitted curve in the direction sought with a large enough effect; inconclusive means small, poorly fitted or top-dose-only effect, or effect the other way, or another doubt; inactive means no such curve, though single readings can be large or run the other way; further: % of control where 0% means no effect
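Bead-based AlphaScreen assay; binding partners His-tagged CBF-beta and biotinylated RUNX1 at 30 nM each. Compound exposure 15 min after a 20-min protein preincubation; bead step 90 min; all steps at room temperature.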
An asterisk follows results filed as active. Unless noted, the call rests on the fitted dose curve.

The chains behind the UniProt entries cited, without tags or fusion partners.
ATP-dependent Clp protease proteolytic subunit (Bacillus subtilis (strain 168)), P80244, UniProt P80244, whole entry, looked up: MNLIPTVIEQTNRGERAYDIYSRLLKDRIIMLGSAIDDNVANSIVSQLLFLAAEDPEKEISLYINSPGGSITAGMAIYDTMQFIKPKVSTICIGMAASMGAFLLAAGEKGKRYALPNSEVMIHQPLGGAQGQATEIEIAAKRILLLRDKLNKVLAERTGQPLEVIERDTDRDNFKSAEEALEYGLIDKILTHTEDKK

C#CCOCCOCCOCCNc1nc(N2CCN(C(=O)CCCCCCCCCCNC(=O)[C@H]([C@@H](C)CC)n3cc(CCCCN=C(N)N)nn3)CC2)nc(N2CCN(C(=O)CCCCCCCCCCNC(=O)[C@H](CCCCN)n3cc(C)nn3)CC2)n1 was read as ClpP mod -2.7%, Rango-impB inh 65.1µM* and Rango release inh 0.2%.
C#CCOCCOCCOCCNc1nc(N2CCN(C(=O)[C@H](CCCN=C(N)N)n3cc(C(N)[C@@H](C)CC)nn3)CC2)nc(N2CCN(C(=O)[C@H](CCC(=O)O)n3cc([C@@H](N)CCCCN)nn3)CC2)n1 (stereo partly specified) was read as ClpP mod 1.1%, Rango-impB inh inconclusive and Rango release inh 7.8%.
Screening C#CCOCCOCCOCCNc1nc(N2CCN(C(=O)[C@H](CCCN=C(N)N)n3cc(C(N)[C@@H](C)CC)nn3)CC2)nc(N2CCN(C(=O)[C@H](CCCCN)n3cc([C@@H](N)[C@H](C)CC)nn3)CC2)n1 (stereo partly specified) returned ClpP mod -3.3%, Rango-impB inh 58µM* and Rango release inh 13.9%.
`CCCCN1C=C(C(=O)OC)C(c2ccccc2C(F)(F)F)C(C(=O)OC)=C1` gave MBNL1-CUG inh 2.5%, ClpP mod 31.6µM*, Rango-impB inh inconclusive, Rango release inh inconclusive and CBFb-RUNX1 inh 0.0%.
`CCOc1ccccc1NC(=O)N1CCN(Cc2nc3ccc(C)cc3o2)CC1` gave ClpP mod -3.7%.
`CCOC(=O)Cc1csc(NC(=O)c2cc(C)c(C)s2)n1` gave ClpP mod 28.2µM*, Rango-impB inh -1.6% and Rango release inh -0.5%.
`CCOC(=O)Cc1csc(NC(=O)c2ccc(Cl)s2)n1` gave MBNL1-CUG inh 48.9%, ClpP mod 1.2%, Rango-impB inh -0.1% and Rango release inh 0.9%.
For CC(=O)c1ccc(N2CCN(C(=O)C3CCN(S(=O)(=O)c4ccc(Br)s4)CC3)CC2)cc1 the results were ClpP mod -19.7%.
Screening COc1ccc2[nH]c(=O)c(CN(C(C)=O)C3CCCCC3)cc2c1 returned MBNL1-CUG inh -13.4%, ClpP mod 31.6µM*, Rango-impB inh 2.4%, Rango release inh -14.9% and CBFb-RUNX1 inh 3.0%.
For COc1ccc2[nH]c(=O)c(CN(C(C)=O)c3cccc(C)c3)cc2c1 the results were MBNL1-CUG inh -8.9%, ClpP mod 35.5µM*, Rango-impB inh -11.6%, Rango release inh 3.7% and CBFb-RUNX1 inh 0.3%.
O=c1cc(CCl)[nH]c2nc3ccccc3n12 was read as ClpP mod 3.5%, Rango-impB inh 1.0%, Rango release inh -12.9% and CBFb-RUNX1 inh -0.8%.
For CCCc1c(C)[nH]c2nc3ccccc3n2c1=O the results were MBNL1-CUG inh 8.4%, ClpP mod 1.6%, Rango-impB inh -0.1% and Rango release inh -18.6%.
Screening O=c1cc(-c2ccccc2)[nH]c2nc3ccccc3n12 returned MBNL1-CUG inh 10.8%, ClpP mod 11.2µM*, Rango-impB inh -1.7%, Rango release inh -8.8% and CBFb-RUNX1 inh 14.3%.
Screening CCc1c(C)[nH]c2nc3ccccc3n2c1=O returned MBNL1-CUG inh 9.2%, ClpP mod 28.2µM*, Rango-impB inh 0.3%, Rango release inh -1.2% and CBFb-RUNX1 inh -5.0%.
For CCOc1ccc(-n2c(=O)c3c(C)c(C)sc3n(Cc3cc(=O)n4cc(Cl)ccc4n3)c2=O)cc1 the results were ClpP mod -3.1%.

Four structures from above, ordered by molar mass, rising.
Screening CCc1c(C)[nH]c2nc3ccccc3n2c1=O returned MBNL1-CUG inh 9.2%, ClpP mod 28.2µM*, Rango-impB inh 0.3%, Rango release inh -1.2% and CBFb-RUNX1 inh -5.0%.
Screening O=c1cc(-c2ccccc2)[nH]c2nc3ccccc3n12 returned MBNL1-CUG inh 10.8%, ClpP mod 11.2µM*, Rango-impB inh -1.7%, Rango release inh -8.8% and CBFb-RUNX1 inh 14.3%.
For CCOc1ccc(-n2c(=O)c3c(C)c(C)sc3n(Cc3cc(=O)n4cc(Cl)ccc4n3)c2=O)cc1 the results were ClpP mod -3.1%.
C#CCOCCOCCOCCNc1nc(N2CCN(C(=O)CCCCCCCCCCNC(=O)[C@H]([C@@H](C)CC)n3cc(CCCCN=C(N)N)nn3)CC2)nc(N2CCN(C(=O)CCCCCCCCCCNC(=O)[C@H](CCCCN)n3cc(C)nn3)CC2)n1 was read as ClpP mod -2.7%, Rango-impB inh 65.1µM* and Rango release inh 0.2%.

Later entries.
Cc1ccc(CNc2ncnc3nc[nH]c23)cc1 was read as ClpP mod 1.9%.
For CCCN1CCC(NC(=O)Nc2ccccc2C(=O)OC)CC1 the results were MBNL1-CUG inh 0.0%, ClpP mod 28.2µM*, Rango-impB inh -3.8%, Rango release inh 1.7% and CBFb-RUNX1 inh 4.6%.
Screening COC(=O)c1ccccc1NC(=O)N1CCN(c2ccccc2F)CC1 returned MBNL1-CUG inh -1.2%, Rango-impB inh -0.2%, Rango release inh -4.4% and CBFb-RUNX1 inh 2.5%.
Screening COC(=O)c1ccccc1NC(=S)NC(=O)COc1ccc(C(C)C)cc1 returned MBNL1-CUG inh -11.2%, ClpP mod -6.3%, Rango-impB inh -4.4%, Rango release inh -7.7% and CBFb-RUNX1 inh 10.0%.
For COC(=O)c1ccccc1NC(=O)N1CCCC1 the results were MBNL1-CUG inh 7.8%, ClpP mod 15.8µM*, Rango-impB inh 0.7%, Rango release inh 3.6% and CBFb-RUNX1 inh 5.7%.
COC(=O)c1ccccc1NC(=O)Oc1ccc(C(C)C)cc1 was read as MBNL1-CUG inh -5.3%, ClpP mod 31.6µM*, Rango-impB inh -2.5%, Rango release inh -3.7% and CBFb-RUNX1 inh 2.1%.
For COC(=O)c1ccccc1NC(=O)NC1CC1 the results were MBNL1-CUG inh 8.4%, ClpP mod -6.3%, Rango-impB inh 2.7%, Rango release inh 3.3% and CBFb-RUNX1 inh 9.5%.
O=C(Nc1c(C(=O)O)[nH]c2ccccc12)NC1CCCCC1 was read as MBNL1-CUG inh inconclusive, ClpP mod 7.94µM*, Rango-impB inh -0.7%, Rango release inh -8.9% and CBFb-RUNX1 inh -6.5%.
For COC(=O)c1[nH]c2ccc(C)cc2c1NC(=O)NC1CCCCC1 the results were MBNL1-CUG inh 3.7%, ClpP mod inconclusive, Rango-impB inh 3.0%, Rango release inh -14.7% and CBFb-RUNX1 inh -1.6%.
CCOC(=O)c1cccc(NS(=O)(=O)c2c(C)nc3sc(C)cn3c2=O)c1 was read as ClpP mod -4.8%.
O=C(c1ccc2c(c1)N(Cc1cccc(Cl)c1)C(=O)c1ccccc1S2(=O)=O)N1CCc2ccccc21 was read as ClpP mod -3.6%.
`Cc1ccc2nc(Nc3ccc(C)c(F)c3)c3nncn3c2c1` gave ClpP mod -16.7%.
For Cc1ccc(/C=C/c2onc(C)c2S(=O)(=O)N2CCC(C(=O)Nc3ccc(C)c(N(C)C)c3)CC2)cc1 the results were ClpP mod -3.8%.
CCc1ccccc1NC(=O)NC1CCCCC1 was read as MBNL1-CUG inh 3.0%, ClpP mod 3.16µM*, Rango-impB inh -2.6%, Rango release inh -13.5% and CBFb-RUNX1 inh 0.5%.
Screening COCCNC(=O)COc1ccc(OCCNC[C@H](O)COc2ccccc2)cc1 returned CBFb-RUNX1 inh 12.6%.
Screening Cc1cc(C)c(C#N)c(N2CCN(c3ccccc3)CC2)n1 returned MBNL1-CUG inh -1.5%, ClpP mod -15.7%, Rango-impB inh 0.1% and Rango release inh 10.4%.
`Cc1cc(C)c(C#N)c(N2CCSCC2)n1` gave MBNL1-CUG inh -11.9%, ClpP mod 35.5µM*, Rango-impB inh 0.5%, Rango release inh -24.4% and CBFb-RUNX1 inh -1.0%.

Compound activity: PubChem BioAssay, National Center for Advancing Translational Sciences (NCATS)
